Laboratory results: ChEMBL document CHEMBL1135432, “Structural classification of protein kinases using 3D molecular interaction field analysis of their ligand binding sites: target family landscapes” (J Med Chem, 2002)

By UniProt entry, the sequences of proteins in these tests, tags left out. Where a name states a change or a piece, a line headed by the entry shows the natural chain unless it says otherwise.
UniProt P11802: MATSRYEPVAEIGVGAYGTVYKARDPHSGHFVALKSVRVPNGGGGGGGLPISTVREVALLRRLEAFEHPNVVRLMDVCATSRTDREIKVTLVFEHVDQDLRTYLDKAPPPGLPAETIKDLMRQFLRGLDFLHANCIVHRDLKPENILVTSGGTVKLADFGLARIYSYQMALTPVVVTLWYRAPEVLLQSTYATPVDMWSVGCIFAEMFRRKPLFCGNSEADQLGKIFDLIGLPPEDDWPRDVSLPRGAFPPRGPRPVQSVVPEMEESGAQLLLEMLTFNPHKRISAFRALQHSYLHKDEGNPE

Biological target: Cyclin-dependent kinase 4/cyclin D1 (Homo sapiens, UniProt P11802)
Test: Inhibition of Cyclin D1-cyclin-dependent kinase 4
Format: protein-complex assay

For Cn1cnc2c(NCc3ccccc3)nc(NCCO)nc21 [OLOMOUCINE], the IC50 was over 1000 µM.
